Data: patent US9856298B2 (priority 2011, dated 2018)

Assay: Serum stability / release of peptide in pure mouse serum (100%) (RP-HPLC, MALDI-MS)
Conditions: 6 h

Substance: tPEG^5000-GAR-VDKPPYLPRPRPPROIYNO-NH2 [tPEG^5000-GAR-Onc 72]
- uncleaved peptide remaining after the indicated time (instead of half-life): 86%
